These compounds were tested against CDK4/CycD1 (Homo sapiens, UniProt P11802) (assay: Kinase activity assay (MSA, EZ Reader) against CDK4).

By UniProt entry, the sequences of proteins in these tests, tags left out. Where a name states a change or a piece, a line headed by the entry shows the natural chain unless it says otherwise.
UniProt P11802: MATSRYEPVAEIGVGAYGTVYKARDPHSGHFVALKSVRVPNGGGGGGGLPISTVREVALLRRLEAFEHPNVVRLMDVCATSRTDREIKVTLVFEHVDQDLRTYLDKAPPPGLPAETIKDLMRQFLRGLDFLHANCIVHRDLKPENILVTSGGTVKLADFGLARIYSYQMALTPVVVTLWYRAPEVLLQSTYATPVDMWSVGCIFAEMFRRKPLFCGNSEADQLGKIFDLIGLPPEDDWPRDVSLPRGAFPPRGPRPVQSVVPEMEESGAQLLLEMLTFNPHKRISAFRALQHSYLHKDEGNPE

SMILES	IC50 [nM]
CC1CCN(C)c2nc3c(F)cc(-c4nc(N[C@@H]5CCOC[C@H]5O)ncc4Cl)cc3n21 (mixture of isomers) [TB-44, (3S,4R)-4-((5-chloro-4-(9-fluoro-1,4-dimethyl-1,2,3,4-tetrahydrobenzo[4,5]imidazo[1,2-a]pyrimidin-7-yl)pyrimidin-2-yl)amino)tetrahydro-2H-pyran-3-ol]	2.93
CN1CCCn2c1nc1c(F)cc(-c3nc(N[C@@H]4CCOC[C@H]4O)ncc3Cl)cc12 [TB-40]	7.94
CN1CCCn2c1nc1c(F)cc(-c3nc(N[C@@H]4CCOC[C@H]4O)ncc3C(F)(F)F)cc12 [TB-41, (3S,4R)-4-((4-(9-fluoro-1-methyl-1,2,3,4-tetrahydrobenzo[4,5]imidazo[1,2-a]pyrimidin-7-yl)-5-(trifluoromethyl)pyrimidin-2-yl)amino)tetrahydro-2H-pyran-3-ol]	161
CN1CCCn2c1nc1c(F)cc(-c3nc(N[C@@H]4CCOC[C@H]4O)ncc3F)cc12 [TB-42, (3S,4R)-4-((5-fluoro-4-(9-fluoro-1-methyl-1,2,3,4-tetrahydrobenzo[4,5]imidazo[1,2-a]pyrimidin-7-yl)pyrimidin-2-yl)amino)tetrahydro-2H-pyran-3-ol]	8.36
CN1CCn2c1nc1c(F)cc(-c3nc(N[C@@H]4CCOC[C@H]4O)ncc3Cl)cc12 [TB-45, (3S,4R)-4-((5-chloro-4-(8-fluoro-1-methyl-2,3-dihydro-1H-benzo[d]imidazo[1,2-a]imidazol-6-yl)pyrimidin-2-yl)amino)tetrahydro-2H-pyran-3-ol]	9.44
CN1C(=O)CCn2c1nc1c(F)cc(-c3nc(N[C@@H]4CCOC[C@H]4O)ncc3Cl)cc12 [TB-46, 7-(5-chloro-2-(((3S,4R)-3-hydroxytetra hydro-2H-pyran-4-yl)amino)pyrimidin-4-yl)-9-fluoro-1-methyl-3,4-dihydrobenzo[4,5]imidazo[1,2-a]pyrimidin-2(1H)-one]	15.3
CN1CCn2c1nc1c(F)cc(-c3nc(NC4CCN(S(C)(=O)=O)CC4)ncc3Cl)cc12 [TB-52, 5-chloro-4-(8-fluoro-1-methyl-2,3-dihydro-1H-benzo[d]imidazo[1,2-a]imidazol-6-yl)-N-(1-(methylsulfonyl)piperidin-4-yl)pyrimidin-2-amine]	8.94
CN1CCCn2c1nc1c(F)cc(-c3nc(Nc4ccncc4)ncc3Cl)cc12 [TB-90]	12.7
C[C@@H]1CCN(C)c2nc3c(F)cc(-c4nc(N[C@@H]5CCOC[C@H]5O)ncc4Cl)cc3n21 [TB-91, (3S,4R)-4-((5-chloro-4-((R)-9-fluoro-1,4-dimethyl-1,2,3,4-tetrahydrobenzo[4,5]imidazo[1,2-a]pyrimidin-7-yl)pyrimidin-2-yl)amino)tetrahydro-2H-pyran-3-ol]	4.15
C[C@H]1CCN(C)c2nc3c(F)cc(-c4nc(N[C@@H]5CCOC[C@H]5O)ncc4Cl)cc3n21 [TB-92, (3S,4R)-4-((5-chloro-4-((S)-9-fluoro-1,4-dimethyl-1,2,3,4-tetrahydrobenzo[4,5]imidazo[1,2-a]pyrimidin-7-yl)pyrimidin-2-yl)amino)tetrahydro-2H-pyran-3-ol]	4.55
COC(=O)N1CCC(Nc2ncc(Cl)c(-c3cc(F)c4nc5n(c4c3)CCCN5C)n2)CC1 [TB-93, methyl 4-((5-chloro-4-(9-fluoro-1-methyl-1,2,3,4-tetrahydrobenzo[4,5]imidazo[1,2-a]pyrimidin-7-yl)pyrimidin-2-yl)amino)piperidine-1-carboxylate]	51.8
CN1CCCn2c1nc1c(F)cc(-c3nc(NC4CCC(F)(F)CC4)ncc3Cl)cc12 [TB-95, 5-chloro-N-(4,4-difluorocyclohexyl)-4-(9-fluoro-1-methyl-1,2,3,4-tetrahydrobenzo[4,5]imidazo[1,2-a]pyrimidin-7-yl)pyrimidin-2-amine]	103
COCc1cc(Nc2ncc(Cl)c(-c3cc(F)c4nc5n(c4c3)CCCN5C)n2)ccn1 [TB-130, 5-chloro-4-(9-fluoro-1-methyl-1,2,3,4-tetrahydrobenzo[4,5]imidazo[1,2-a]pyrimidin-7-yl)-N-(2-(methoxymethyl)pyridin-4-yl)pyrimidin-2-amine]	28.6
CN1CCCn2c1nc1c(F)cc(-c3nc(NC4CCOCC4)ncc3Cl)cc12 [TB-132, 5-chloro-4-(9-fluoro-1-methyl-1,2,3,4-tetrahydrobenzo[4,5]imidazo[1,2-a]pyrimidin-7-yl)-N-(tetrahydro-2H-pyran-4-yl)pyrimidin-2-amine]	46.8
CCS(=O)(=O)N1CCC(Nc2ncc(Cl)c(-c3cc(F)c4nc5n(c4c3)CCCN5C)n2)CC1 [TB-143, 5-chloro-N-(1-(ethylsulfonyl)piperidin-4-yl)-4-(9-fluoro-1-methyl-1,2,3,4-tetrahydrobenzo[4,5]imidazo[1,2-a]pyrimidin-7-yl)pyrimidin-2-amine]	7.9
CNS(=O)(=O)N1CCC(Nc2ncc(Cl)c(-c3cc(F)c4nc5n(c4c3)CCCN5C)n2)CC1 [TB-144, 4-((5-chloro-4-(9-fluoro-1-methyl-1,2,3,4-tetrahydrobenzo[4,5]imidazo[1,2-a]pyrimidin-7-yl)pyrimidin-2-yl)amino)-N-methylpiperidine-1-sulfonamide]	13.6

From patent publication EP4775575A1, “COMPOUND USED AS CDK4 KINASE INHIBITOR AND USE THEREOF” (TYK Medicines, Inc., priority 2023, dated 2025)
